Measured values: patent US12630600B2 (MEDIMMUNE LIMITED, priority 2022, dated 2026)

Protein sequences, listed by entry. Tags and fused reporters are not part of them. Residues count along the entry.
UniProt P43220, 24-463: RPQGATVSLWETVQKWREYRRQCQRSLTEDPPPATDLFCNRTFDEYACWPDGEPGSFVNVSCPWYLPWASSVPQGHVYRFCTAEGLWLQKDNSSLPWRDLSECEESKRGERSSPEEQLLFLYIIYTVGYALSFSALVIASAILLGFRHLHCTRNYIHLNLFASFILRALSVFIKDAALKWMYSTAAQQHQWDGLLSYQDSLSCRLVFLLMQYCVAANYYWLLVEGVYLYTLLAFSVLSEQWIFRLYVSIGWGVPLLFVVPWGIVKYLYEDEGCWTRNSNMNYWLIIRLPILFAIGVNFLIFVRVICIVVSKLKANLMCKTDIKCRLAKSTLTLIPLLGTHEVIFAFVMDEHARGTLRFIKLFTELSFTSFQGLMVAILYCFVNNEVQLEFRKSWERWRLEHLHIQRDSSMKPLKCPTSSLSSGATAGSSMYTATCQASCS

Columns and labels:
[1] = Pharmacokinetic profiling in mouse (i.v., s.c.); conditions: Mouse C57bl/6, i.v., 10 nmol/kg
Description: Selected test peptides (n=8) were profiled for pharmacokinetic (PK) properties in the mouse after single intravenous (i.v.) or subcutaneous (s.c.) dose. A subset (n=4) meeting the acceptance criteria was subsequently profiled in the dog (single i.v. dose) and non-human primate (single i.v. and s.c. dose). […] Low-binding plasticware containers were used during preparation and sample handling to avoid non-specific binding.
After dosing, PK samples were collected from the dorsal metatarsal vein. Blood of each sample was transferred into plastic micro centrifuge tubes containing EDTA-K2, inverted several times for proper mixing of contents and then placed on wet ice. The blood samples were centrifuged at 4° C. to obtain plasma and stored at −75° C. prior to analysis.
Samples analysis: Samples were analyzed by LC-MS/MS. Calibration standards were injected at the beginning and end of each batch and the determined concentration for each prepared standard was used to construct a calibration curve. Plasma and dose aliquot sample concentrations were determined from the plasma calibration curve.
Data analysis: Plasma concentration data was analyzed by non-compartmental analysis (NCA) using Phoenix Winnonlin v. 8.3.3.33. […] Subcutaneous bioavailability was calculated as the ratio AUC(s.c.)0-inf/AUC(i.v.)0-inf. […]

[2] = biological target: T1, human GLP-1 receptor (hGLP-1R) (Homo sapiens, UniProt P43220); experiment: cAMP production (HTRF) in CHO cells expressing human GLP-1 receptor; format: cell-based; conditions: Table 6; % GLP-1R activity relative to GLP-1 / % GlucR activity relative to glucagon
T1 construct: expressed in transfected cells; host or cells: CHO
Protocol: Cells were re-suspended in assay buffer at a batch-dependent optimized concentration (typically hGLP-1R cells at 1×10^5 cells/mL, hGCGR cells at 2×10^5 cells/mL).
Cells were added to the assay plate using a multidrop dispenser and incubated at room temperature for 30 minutes before measuring the cAMP level using a cAMP dynamic 2 homogeneous time resolved Fluorescence (HTRF) kit (Cisbio Bioassays #62AM4PEJ) following the two-step protocol as per manufacturer's recommendations. In brief, anti-cAMP cryptate (donor fluorophore) and cAMP-d2 (acceptor fluorophore) were made up separately by diluting each 1 in 20 in conjugate and lysis buffer provided in the kit. Anti-cAMP cryptate was added to all wells of the assay plate, followed by cAMP-d2 added to all wells except non-specific binding (NSB) wells (to which conjugate and lysis buffer was added).
Data was transformed to % Delta F as described in the manufacturer's guidelines and analyzed by 4-parameter logistic fit to determine EC50 values.

## H-Aib-Q-G-T-F-T-S-D-V-S-K-αMePhe-L-D-T-K-R-A-R-D-F-V-Q-W-L-L-E-Aib-G-acid [Peptide 195]
[1]
  Half-life i.v. administration: 11 h
[2]
  % Relative Potency Ratio: 2.2
